Data on one compound can be found in BindingDB's records for doi:10.1016/S0968-0896(02)00561-8 (Purdue University, 2003).

Sequences of proteins named here, by UniProt entry; tags and fusion partners are left off.
UniProt P18901, whole entry: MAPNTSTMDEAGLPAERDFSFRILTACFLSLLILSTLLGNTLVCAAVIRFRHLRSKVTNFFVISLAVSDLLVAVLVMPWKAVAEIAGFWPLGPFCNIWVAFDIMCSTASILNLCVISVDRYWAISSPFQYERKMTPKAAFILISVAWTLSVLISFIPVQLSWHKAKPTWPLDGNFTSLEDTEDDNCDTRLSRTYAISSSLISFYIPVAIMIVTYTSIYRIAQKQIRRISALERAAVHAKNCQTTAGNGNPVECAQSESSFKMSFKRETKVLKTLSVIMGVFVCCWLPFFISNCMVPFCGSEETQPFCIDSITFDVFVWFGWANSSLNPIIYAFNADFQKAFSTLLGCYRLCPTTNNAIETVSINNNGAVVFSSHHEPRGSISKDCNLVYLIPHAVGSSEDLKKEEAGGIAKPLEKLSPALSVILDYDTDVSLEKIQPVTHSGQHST

The target in the assay is D(1A) dopamine receptor (Rattus norvegicus, UniProt P18901).

The term Ki denotes the dissociation constant of the complex between target and ligand, obtained from inhibition or displacement. A low value points to higher affinity. The compound `Oc1ccc2c(c1O)Cc1cccc3c1[C@H]2CNC3` [Dinapsoline, (R)(+)] returned a Ki of 6.1 nM.
